Source: ChEMBL document CHEMBL5584361, “Re-Evaluating PIN1 as a Therapeutic Target in Oncology Using Neutral Inhibitors and PROTACs” (J Med Chem, 2024)

Legend:
Huh-7 = assay: Antiproliferative activity against human Huh-7 cells assessed as cell growth inhibition incubated for 96 hrs by Cell-Titer Glo assay; conditions: Huh-7, 96 h
[1] = Permeability across apical to basolateral side in MDCK cells incubated for 120 mins by LC-MS/MS analysis; conditions: dog
PANC-1 = assay: Antiproliferative activity against human PANC-1 cells assessed as cell growth inhibition incubated for 96 hrs by Cell-Titer Glo assay; conditions: PANC-1, 96 h
MDA-MB-468 = assay: Antiproliferative activity against human MDA-MB-468 cells assessed as cell growth inhibition incubated for 96 hrs by Cell-Titer Glo assay; conditions: MDA-MB-468, 96 h

GI50 (Huh-7): 19.1 µM | Papp A→B at 2 h [1]: 0.57 ×10⁻⁶ cm/s | GI50 (PANC-1): > 30 µM | GI50 (MDA-MB-468): 37.1 µM
SMILES: CNC(=O)C(Cc1cn(-c2ccc(-c3ccc(C#N)cc3)cc2)nn1)NC(=O)C1(c2ccccc2)CC1 (centres undefined)
